molecular target: Peroxisome proliferator-activated receptor gamma (Mus musculus) (UniProt P37238); experiment: Inverse agonist activity at PPARgamma in NMRI-nu/nu mouse assessed as fold reduction in Fabp4 mRNA expression in adipose tissue at 100 mg/kg for 3 days and measured 15 hrs last dose by qPCR analysis; format: organism-based; details: filed as inverse agonist, time 3.0 day

Chains of the proteins cited; added tags and fusions are not shown.
UniProt P37238, whole entry: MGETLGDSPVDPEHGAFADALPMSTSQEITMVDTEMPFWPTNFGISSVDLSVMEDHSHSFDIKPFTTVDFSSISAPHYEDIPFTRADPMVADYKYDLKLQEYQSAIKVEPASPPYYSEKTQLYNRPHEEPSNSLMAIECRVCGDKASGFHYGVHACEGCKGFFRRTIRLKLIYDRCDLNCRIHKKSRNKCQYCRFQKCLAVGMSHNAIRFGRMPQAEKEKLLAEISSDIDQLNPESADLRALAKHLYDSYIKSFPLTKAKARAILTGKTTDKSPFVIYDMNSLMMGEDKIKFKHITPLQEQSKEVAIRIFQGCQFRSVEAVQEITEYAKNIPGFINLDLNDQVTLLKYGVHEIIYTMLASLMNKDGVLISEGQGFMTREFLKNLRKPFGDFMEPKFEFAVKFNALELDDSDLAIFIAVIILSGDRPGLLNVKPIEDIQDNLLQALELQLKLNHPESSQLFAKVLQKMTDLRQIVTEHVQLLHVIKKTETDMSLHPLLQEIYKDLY

Fold change (FC), 2:
Cc1cc(N2CCOCC2)cnc1NC(=O)c1cc(C(=O)NCc2ccc(F)c(F)c2)c(F)cc1Cl, CC(C)(O)c1ccc(NC(=O)c2cc(C(=O)NCc3ccc(F)c(F)c3)c(F)cc2Cl)cc1, Cc1cc(OC(F)F)ccc1NC(=O)c1cc(C(=O)NCc2ccc(F)cc2)c(F)cc1Cl
